{
  "source": "paper PMC12105006",
  "about": "“AI-Driven De Novo Design and Development of Nontoxic DYRK1A Inhibitors” (Journal of Medicinal Chemistry, 2025)",
  "assay": "Oxygen radical absorbance capacity (ORAC) antioxidant assay",
  "method": "The antioxidant activity of the newly synthesized compounds was assessed using the oxygen radical absorbance capacity (ORAC) in vitro assay. The FLUOstar Optima plate reader (BMG Labtech GmbH, Offenburg, Germany) was employed, with excitation at 485 nm and emission at 520 nm. 2,2′-Azobis(amidinopropane) dihydrochloride (AAPH), (±)-6-hydroxy-2,5,7,8-tetramethylchromane-2-carboxylic acid (trolox), and fluorescein (FL) were procured from Sigma-Aldrich. The assay was conducted in 75 mM phosphate buffer (pH = 7.4) with a final reaction volume of 200 μL. Each well of black 96-well plates contained 25 μL of the antioxidant sample and 150 μL of fluorescein (10 nM). After preincubation at 37 °C for 30 min, 25 μL of a 240 mM AAPH solution was rapidly added using a multichannel pipet. Fluorescence measurements were taken every 90 s for 90 min, with the plate agitated before each reading. The compounds were tested at four concentrations (10–1 μM). A blank containing FL and AAPH in phosphate buffer, as well as four concentrations of trolox (10–1 μM) served as controls. All reactions were performed in duplicate, with at least three independent tests per compound. Data were exported for analysis, plotting absorbance versus time. The area under the fluorescence decay curve (AUC) was calculated for each sample. ORAC values were derived from the AUC values and expressed as Trolox equivalents.",
  "note": "Read-outs that look alike come from different tables or passages of the source.",
  "data": [
    {"smiles": "CN1CCC(n2cc(-c3cnc4[nH]cc(-c5cc(Cl)cc(Cl)c5)c4c3)cn2)CC1", "note": "[Compound 6, 3-(3,5-Dichlorophenyl)-5-(1-(1-methylpiperidin-4-yl)-1H-pyrazol-4-yl)-1H-py-rrolo[2,3-b]pyridine]", "values": [
      {"measurement": "ORAC", "value": "0.44 ± 0.06"},
      {"measurement": "ORAC", "setting": "phosphate buffer pH 7.4, fluorescein/AAPH", "value": "0.44 ± 0.06 μmol of trolox equivalents/μmol of tested compound"}
    ]}
  ]
}
